{
  "source": "patent US20250066831",
  "tested_on": "(V/A)80 elastin-like polypeptide fused to CVLL",
  "data": [
    {"substance": "geranylgeranyl transferase type I (GGTase-I) from Rattus norvegicus, heterodimer of alpha and beta subunits", "values": [
      {"measurement": "cumulative yield of farnesylated protein relative to FTase", "result": "2-3×the amount produced by the canonical enzyme (FTase)"}
    ]}
  ]
}
